Test system: not listed separately
Test: Stability in simulated intestinal fluid (FaSSIF with pancreatin)
Type: in vitro ADME
Details: 20 μM, FaSSIF 1% pancreatin, 37° C.
Procedure: FaSSIF was prepared by dissolving 1.2 g porcine pancreatin (Chem-supply, PL378) in 100 mL Blank FaSSIF and stirred at room temperature for 30 minutes. The solution was filtered through 0.45 μm membrane and aliquot and stored at −20° C.
(§1) Experimental compounds of interest (20 μM) were incubated with pre-warmed FaSSIF (1% pancreatin in final incubation mixture) at 37° C. Aliquots were taken at various time points up to 24 hours (e.g. 0, 0.25, 1, 3, 6 and 24 hr), and immediately quenched with 4 volumes of organic solvent (acetonitrile/methanol (1:1) and 0.1% formic acid, containing 1 μM internal standard). Quenched samples were stored at 4° C. until the end of the experiment and centrifuged at 4,000 rpm for 10 minutes. The supernatant were diluted 1:1 with deionized water and analyzed using LC-MS. Percentage remaining at each time point was calculated based on the peak area ratio (analyte over internal standard) relative to the initial level at time zero. Half-lives were calculated by fitting to a first-order exponential decay equation using GraphPad.
Compounds of interest (at concentration of 20 μM) were mixed with pre-warmed FaSSIF (1% pancreatin in final working solution). The solution mixture was aliquoted and incubated at 37° C. The number of aliquots required was equivalent to the number of time points (e.g. 0, 0.25, 1, 3, 6 and 24 hr). At each time point, one aliquot was taken and immediately quenched with 4 volumes of organic solvent (acetonitrile/methanol (1:1) and 0.10% formic acid, containing 1 μM internal standard). The remaining steps were the same as the generic experimental.

Row | Substance | SIF Half life [min] | SIF, percentage in parentheses beside half life (meaning not defined) [%]
1 | Isovaleric acid-DTHFPCIKF-Lys[PEG11-Palm]-PRSKGCK-NH2 [Ref. Cmpd. 1] | < 15 | 1
2 | Isovaleric acid-D-T-H-[Dpa]-P-C-I-(D)Lys-bhPhe-[Lys(Ahx-Palm)]-(D)Lys-meCys-NH2 [Compound 3] | 66 | –
3 | Isovaleric acid-DTHFPCIKF-Lys[PEG11-Palm]-PRSK-[SAR]-CK-NH2 [Ref. Cmpd. 2] | < 15 | 1
4 | Isovaleric acid-D-T-H-[Dpa]-P-C-I-(D)Lys-bhPhe-[Lys(Ahx-Palm)]-R-C-NH2 [Compound 2] | 78 | –

Test system: not listed separately
Test: Stability in simulated gastric fluid (SGF with pepsin)
Type: in vitro ADME
Details: 20 μM, SGF with pepsin pH 1.2, 37° C.
Procedure: Blank SGF was prepared by adding 2 g sodium chloride, 7 mL hydrochloric acid (37%) in a final volume of 1 L water, and adjusted pH to 1.2.
SGF was prepared by dissolving 320 mg Pepsin (Sigma®, P6887, from Porcine Stomach Mucosa) in 100 mL Blank SGF and stirred at room temperature for 30 minutes. The solution was filtered through 0.45 μm membrane and aliquot and stored at −20° C.
as §1, with “(at a concentration of 20” for “(20”, “SGF” for “FaSSIF (1% pancreatin in final incubation mixture)”, “(e.g.,” for “(e.g.”

Row | Substance | SGF Half life [min] | SGF, percentage in parentheses beside half life (meaning not defined) [%]
5 | Isovaleric acid-DTHFPCIKF-Lys[PEG11-Palm]-PRSKGCK-NH2 [Ref. Cmpd. 1] | < 15 | 6
6 | Isovaleric acid-D-T-H-[Dpa]-P-C-I-(D)Lys-bhPhe-[Lys(Ahx-Palm)]-(D)Lys-meCys-NH2 [Compound 3] | 660 | –
7 | Isovaleric acid-DTHFPCIKF-Lys[PEG11-Palm]-PRSK-[SAR]-CK-NH2 [Ref. Cmpd. 2] | 26 | –
8 | Isovaleric acid-D-T-H-[Dpa]-P-C-I-(D)Lys-bhPhe-[Lys(Ahx-Palm)]-R-C-NH2 [Compound 2] | 144 | –

Target: T1, human ferroportin (Homo sapiens, UniProt Q9NP59)
T1 sequence (Q9NP59 1-571): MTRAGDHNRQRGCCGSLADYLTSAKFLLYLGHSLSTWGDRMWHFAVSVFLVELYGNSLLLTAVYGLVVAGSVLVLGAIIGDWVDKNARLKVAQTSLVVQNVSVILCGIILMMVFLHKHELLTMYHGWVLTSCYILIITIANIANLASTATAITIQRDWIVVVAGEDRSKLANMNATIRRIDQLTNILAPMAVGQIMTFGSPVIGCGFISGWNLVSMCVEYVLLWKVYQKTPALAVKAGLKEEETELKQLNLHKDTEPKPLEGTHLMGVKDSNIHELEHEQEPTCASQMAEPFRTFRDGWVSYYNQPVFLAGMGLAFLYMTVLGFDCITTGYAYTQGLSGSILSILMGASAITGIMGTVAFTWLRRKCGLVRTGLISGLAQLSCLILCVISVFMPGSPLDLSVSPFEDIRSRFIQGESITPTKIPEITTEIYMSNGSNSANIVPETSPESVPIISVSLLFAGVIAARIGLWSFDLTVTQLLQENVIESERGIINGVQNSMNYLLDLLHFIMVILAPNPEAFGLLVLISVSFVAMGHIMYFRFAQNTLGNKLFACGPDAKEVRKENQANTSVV
Test: FPN activity assay: internalization/degradation of ferroportin-GFP in stably transfected HEK293 cells
Details: read-out: FPN EC50; Table 3A; HEK293 ferroportin-GFP cells, at least 18 hours incubation

Row | Substance | DC50 [nM]
9 | Isovaleric acid-D-T-H-[Dpa]-P-C-I-(D)Lys-bhPhe-[Lys(Ahx-Palm)]-R-C-NH2 [Compound 2] | 11.8
10 | Isovaleric acid-D-T-H-[Dpa]-[Npc]-C-I-Lys[isoGlu-Palm]-bhPhe-C-(D)Lys-NH2 [Compound 19] | 4.56
11 | Isovaleric acid-D-T-H-[Dpa]-P-C-I-(D)Lys-bhPhe-[Lys(Ahx-Palm)]-[Spiral_Pip]-C-NH2 [Compound 21] | 37.5
12 | Isovaleric acid-D-T-H-[Dpa]-P-C-I-Lys[Ahx-isoGlu-Palm]-bhPhe--(D)Lys-C-NH2 [Compound 5] | 0.75
13 | Isovaleric Acid-D-T-H-[Dpa]-P-C-I-[(D)Lys]-[bhPhe]-[Lys(2Peg11′_Palm)]-P-R-S-K-C-NH2 [Compound 33] | 25.4
14 | Isovaleric acid-D-T-H-[Dpa]-P-C-I-(D)Lys-bhPhe-[Lys(Ahx-Palm)]-(D)Lys-C-NH2 [Compound 20] | 6.66
15 | Isovaleric Acid-D-T-H-[Dpa]-P-C-I-[(D)Lys]-[bhPhe]-[Lys(Lys[Peg11_Palm]2)]-[(D)Lys]-C-NH2 [Compound 38] | 33
16 | Isovaleric acid-D-T-H-[Dpa]-P-C-I-(D)Lys-bhPhe-[Lys(Ahx-Palm)]-Cit-C-NH2 [Compound 24] | 45.8
17 | Isovaleric acid-D-T-H-[Dpa]-P-C-I-Lys[isoGlu-Palm]-bhPhe-(D)Lys-C-NH2 [Compound 6] | 6.16
18 | Isovaleric acid-D-T-H-[Dpa]-P-C-I-(D)Lys-bhPhe-[Lys(Ahx-Palm)]-Arg(Nitro)-C-NH2 [Compound 22] | 30.1

Same assay, conditions: read-out: FPN EC50; Table 3B; HEK293 ferroportin-GFP cells, at least 18 hours incubation

Row | Substance | DC50 [nM]
19 | Isovaleric Acid-[(D)Asp]-T-H-F-P-[Cys]-I-[Lys(IsoGlu_Palm)]-F-E-P-R-S-K-G-[Cys]-K-NH2 [Compound 204] | 5.52
20 | Isovaleric Acid-D-T-H-[Dpa]-P-[Cys]-[MeLeu]-[(D)Lys]-[bhPhe]-[Lys(Ahx_Palm)]-[(D)Lys]-[Cys]-NH2 [Compound 201] | 12.5
21 | Isovaleric Acid-D-T-H-[Dpa]-P-[Cys]-I-[(D)Lys]-[MePhe]-[Lys(Ahx_Palm)]-[(D)Lys]-[Cys]-NH2 [Compound 202] | 16.2
22 | Isovaleric Acid-D-T-H-F-P-[Cys]-I-K-F-[Lys(1PEG2_1PEG2_Ahx_C18_Diacid)]-P-R-S-K-[Sarc]-[Cys]-K-NH2 [Compound 210] | 27.8
23 | Isovaleric Acid-D-T-H-F-P-[Cys]-I-[Lys(IsoGlu_Palm)]-F-E-P-R-S-K-G-[Cys]-[MeLys]-NH2 [Compound 235] | 10.3
24 | Isovaleric Acid-D-T-H-[Dpa]-P-[Cys]-I-K-F-[Lys(PEG12_Palm)]-P-R-S-K-[Sarc]-[Cys]-K-NH2 [Compound 212] | 20.7
25 | Isovaleric Acid-D-T-H-F-P-[Cys]-I-[Lys(IsoGlu_Palm)]-F-E-P-R-[MeSer]-K-G-[Cys]-K-NH2 [Compound 239] | 6.34
26 | Isovaleric Acid-D-T-H-F-P-[Cys]-I-[Lys(Ac)]-F-[Lys(PEG12_Palm)]-P-[Lys(Ac)]-S-[Lys(Ac)]-[Sarc]-[Cys]-K-NH2 [Compound 214] | 7.19

Same assay, conditions: read-out: IC50: FPN internalisation; Table 3C

Row | Substance | DC50 [nM] | IC50 [nM]
27 | [Isovaleric Acid]-D-T-H-[Dpa]-P-C-I-I-[bhPhe]-[Lys(PEG12 Palm)]-[(D)Lys]-C-NH2 [Compound 331] | 24 | –
28 | [Isovaleric Acid]-D-T-H-[Dpa]-[Npc]-C-I-[(D)Lys]-[aMePhe]-[Lys(PEG12 Palm)]-K-C-NH2 [Compound 348] | 2.1 | –
29 | [Isovaleric Acid]-D-T-H-[Dpa]-P-C-I-[(D)Lys]-[bhPhe]-[Lys(Ac)]-C-NH2 [Compound 326] | 95.7 | –
30 | [Isovaleric Acid]-D-T-H-[Dpa]-P-C-I-[bAla]-[bhPhe]-[(D)Lys]-C-NH2 [Compound 323] | 10.6 | –
31 | [Isovaleric Acid]-D-T-H-[Dpa]-[Npc]-C-I-[(D)Lys]-[Phe(4-COOH)]-[Lys(PEG12_Palm)]-K-C-NH2 [Compound 356] | 0.1 | –
32 | [Isovaleric Acid]-D-T-H-[Dpa]-P-C-I-[bhPhe]-[(D)Lys]-C-NH2 [Compound 324] | 23.3 | –
33 | [Isovaleric Acid]-D-T-H-[Dpa]-P-C-I-[(D)Lys]-F-[Lys(PEG12_Palm)]-K-[N-MeCys]-NH2 [Compound 343] | 13.5 | –
34 | [Isovaleric Acid]-D-T-H-[Dpa]-P-C-I-(D)Ala-[bhPhe]-[Lys(PEG12_Palm)]-[(D)Lys]-C-NH2 [Compound 332] | 11 | –
35 | [Isovaleric Acid]-D-T-H-[Dpa]-P-C-I-[(D)Lys]-F-[Lys(PEG12 Palm)]-[Dap]-[Hcy]-NH2 [Compound 335] | – | 18
36 | [Isovaleric Acid]-D-T-H-[Dpa]-[Npc]-C-I-[(D)Lys]-F-[Lys(PEG12_Palm)]-K-C-NH2 [Compound 360] | 9.64 | –
37 | [Isovaleric Acid]-D-T-H-[Dpa]-P-C-I-[Lys(Ahx_Palm)]-[2Pal]-C-NH2 [Compound 320] | 9.72 | –
38 | [Isovaleric Acid]-D-T-H-[Dpa]-P-C-I-[(D)Lys]-F-[Lys(PEG12_Palm)]-C-NH2 [Compound 341] | 22 | –
39 | [Isovaleric Acid]-D-T-H-[Dpa]-[Npc]-C-I-[(D)Lys]-[Phe(4-tBu)]-[(D)Lys]-C-[Lys(PEG12_Palm)]-NH2 [Compound 328] | 16.5 | –

Source: patent US20240018189A1 (Protagonist Therapeutics, Inc., priority 2020, published 2024)
